Experimental data as given in ChEMBL document CHEMBL3421625, “Discovery and optimization of novel antagonists to the human neurokinin-3 receptor for the treatment of sex-hormone disorders (Part I)” (J Med Chem, 2015).
pIC50: −log10 of the molar value.

Protein sequences, listed by entry. Tags and fused reporters are not part of them.
UniProt P29371, whole entry: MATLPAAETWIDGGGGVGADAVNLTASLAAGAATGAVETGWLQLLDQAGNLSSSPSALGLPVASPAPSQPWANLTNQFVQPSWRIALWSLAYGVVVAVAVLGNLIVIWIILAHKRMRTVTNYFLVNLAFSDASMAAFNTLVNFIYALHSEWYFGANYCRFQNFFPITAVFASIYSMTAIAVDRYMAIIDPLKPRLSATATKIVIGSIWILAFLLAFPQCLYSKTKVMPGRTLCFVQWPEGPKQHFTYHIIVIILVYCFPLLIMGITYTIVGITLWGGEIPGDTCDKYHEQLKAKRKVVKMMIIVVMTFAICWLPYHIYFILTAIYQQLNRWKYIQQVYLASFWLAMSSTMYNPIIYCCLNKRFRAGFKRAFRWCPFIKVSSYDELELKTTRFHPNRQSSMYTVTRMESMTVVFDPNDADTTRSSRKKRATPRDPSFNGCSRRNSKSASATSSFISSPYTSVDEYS

Molecular target: Neuromedin-K receptor (Homo sapiens, UniProt P29371)

Cc1nc(-c2nnc3n2CCN(C(=O)c2ccc(-c4cccs4)cc2)[C@H]3C)cs1
pIC50: 6.30
